Our source for the IC50 values is patent US20070191406A1, “Heterocyclic antiviral compounds” (Roche Palo Alto LLC, priority 2006, published 2007).

Sequences of proteins named here, by UniProt entry; tags and fusion partners are left off.
UniProt P51681, whole entry: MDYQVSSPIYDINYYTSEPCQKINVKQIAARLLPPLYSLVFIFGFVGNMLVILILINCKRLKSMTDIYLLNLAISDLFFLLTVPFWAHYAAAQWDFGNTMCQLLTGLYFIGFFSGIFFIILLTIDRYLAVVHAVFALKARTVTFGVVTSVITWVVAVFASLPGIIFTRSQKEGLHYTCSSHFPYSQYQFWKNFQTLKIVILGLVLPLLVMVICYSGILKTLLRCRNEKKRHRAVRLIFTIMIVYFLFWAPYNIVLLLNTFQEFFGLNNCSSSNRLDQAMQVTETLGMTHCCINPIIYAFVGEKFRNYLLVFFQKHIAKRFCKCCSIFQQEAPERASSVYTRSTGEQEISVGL

The assay addresses CCR5 (Homo sapiens, UniProt P51681). Briefly: CCR5-Mediated CCF Assay. Conditions: Hela-R5 cells (gp160 from R5-tropic virus, HIV-1 Tat) co-cultured 24 hrs with CEM-NKr-CCR5-Luc cells; luciferase readout. The method, then: CCF assay was performed as described before (C. Ji, J. Zhang, N. Cammack and S. Sankuratri, J. Biomol. Screen. 2006 11(6):652-663). Hela-R5 cells (express gp160 from R5-tropic virus and HIV-1 Tat) were plated in 384 well white culture plates (BD Bioscience, Palo Alto, Calif.) at 7.5×10^3 cells per well in phenol red-free Dulbecco's Modified Eagle Medium (DMEM) supplemented with 10% FBS, 1× Pen-Strep, 300 μg/mL G418, 100 μg/mL hygromycin, and 1 μg/mL Doxycycline (Dox) (BD Bioscience, Palo Alto, Calif.), using Multimek (Beckman, Fullerton, Calif.) and incubated at 37° C. overnight to induce the expression of gp160. Ten μL diluted compounds in medium containing 5% DMSO were added to the cells, followed by the addition of CEM-NKr-CCR5-Luc (obtained from NIH AIDS Research & Reference Reagents Program) that expresses CD4 and CCR5 and carries a HIV-2 long terminal repeat (LTR)-driven luciferase reporter gene at 1.5×10^4 cells/15 μL/well and incubated for 24 hrs. At the end of co-culture, 15 μL of Steady-Glo luciferase substrate was added into each well, and the cultures were sealed and gently shaken for 45 min. The luciferase activity were measured for 10 sec per well as luminescence by using 16-channel TopCount NXT (PerkinElmer, Shelton, Conn.) with 10 min dark adaptation and the readout is count per second (CPS). […]

In general, IC50 refers to the midpoint of a concentration-inhibition curve. A higher IC50 goes with lower potency. With `Cc1ncnc(C)c1C(=O)N1C[C@H]2CN(CC[C@H](NC(=O)[C@@H]3CC[C@@H](OC(=O)C(C)C)C3)c3cccc(F)c3)C[C@H]2C1`, the IC50 was 4.2 nM.
